Test system: dorsal root ganglion neurons
Test: EGFR ectodomain in NGF withdrawal-induced axon degeneration
Type: cell-based, mouse
Settings: 50 μg/mL, added 24 hours prior to or at the same time as 25 μg/ml anti-NGF
Procedure: Materials used in these studies include BD Biocoat PDL/Laminin coated glass 8 well chamber slides (BD 354688); L15 medium (Invitrogen 11415114); albumin from bovine serum (BSA) (Sigma A7906-500 g); fetal bovine serum (Sigma F2442-100 ml); N3 supplement (see above); Fluoromount G (Electron Microscopy Sciences 17984-25); 24×60 mm No. 1 coverslips (VWR 48393 106); monoclonal anti-neuronal class III beta-tubulin (Covance MMS-435P); Nerve Growth Factor 2.5 S, mouse (Roche 11362348001) in Ham's F12; and Triton X-100 (Sigma T8787-100 ml). Solutions used in these experiments include 25 ml N3/F12 medium (23 ml of Ham's F12; 1 ml of N3 supplement; 1 ml of 1M glucose; 25 ng/ml of NGF) and 30% Sucrose/8% PFA (see above).
Ectodomains (R&D Systems) were resuspended in sterile filtered 0.1% BSA in PBS to 1 mg/ml. Mouse E13.5 embryos were dissected out and place into L15 medium. Using forceps, the ventral region of the embryo was opened, organs removed, ribs cut away, and spinal cord dissected out with DRGs attached. The spinal cords with DRGs attached were placed into L15 medium+5% goat serum on ice. DRGs were removed with a tungsten needle and the remaining spinal cord was disposed of. 8 well slides were filled with N3-F12 plus 25 ng/ml NGF. DRGs were sectioned into halves. […]

With “EGFR ectodomain: EGFR ectodomain from R&D Systems, added to bind free EGFR ligands” the “block of axon degeneration induced by NGF withdrawal” value was “does not block axon degeneration”.
